From patent US4746736A, “Carbapenem antibiotics” (priority 1986, dated 1988)

Test: Blood levels in mice after intramuscular administration
Details: 20 mg/kg i.m., mice (compiled table)

3-[4-(N,N-dimethyl-1,2,3-triazolium)methylthio]-6α-[1-(R)-hydroxyethyl]-7-oxo-1-azabicyclo(3.2.0)hept-2-ene-2-carboxylate [Example 15 "B"]
T1/2: 10 min
